AlphaSeq binding of Ab-91 heavy chain variants to a spike HR2 peptide

Antigen: PDVDLGDISGINAS, a 14-residue peptide of the SARS-CoV-2 spike HR2 region.

Ab-91 is the parent antibody, in scFv form: VL, then a (GGGGS)3 linker, then VH. The light chain is unchanged in all variants.
VL: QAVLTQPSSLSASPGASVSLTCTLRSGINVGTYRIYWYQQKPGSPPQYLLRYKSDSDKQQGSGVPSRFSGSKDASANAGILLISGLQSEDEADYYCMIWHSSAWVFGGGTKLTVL
VH: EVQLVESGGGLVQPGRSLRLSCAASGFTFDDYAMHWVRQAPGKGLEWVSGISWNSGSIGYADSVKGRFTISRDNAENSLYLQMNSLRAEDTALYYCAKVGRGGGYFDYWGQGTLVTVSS

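Phage display of a naive human antibody library on the peptide gave the parent. AAYL51 was designed without a model: most single CDR substitutions and a random sample of double and triple ones. Affinity was read by AlphaSeq, a pooled yeast mating assay with surface-displayed partners. Mating (16 h, 30 °C) was followed by selection of diploids and sequencing of their barcodes. Scores were corrected for input abundance and mapped to Kd with protein pairs of known affinity run in the same pool. Each pool was mated in three replicate cultures.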

Each variant is given by its three heavy chain CDRs, as the data file delimits them; those of the parent are GFTFDDYAMH, GISWNSGSIGYADSVK, VGRGGGYFDY.
Scale: log10 of Kd in nM, estimated from mating counts; low values are strong binders.
A mean of the replicates is given; it leaves out those without a signal.
"nd" marks a missing value. The strain was present, yet no cells mated with the target were sequenced in that replicate, which points to weak or no binding.
In this assay the parent's reference entry averaged 1.86; its copy inside this library read 0.88.
Three control strains display no target. For library AAYL51, 21% of the pairings with them gave a signal, with a median of 4.54 and one signal in twenty below 3.26, so weak values seen in few replicates may be background. For each scFv, signals with the empty controls are counted beside the result, with their mean in brackets.

CDR-H1,CDR-H2,CDR-H3,"log10 Kd, replicates","mean, log10 nM",control signals
GFTCDDYAMH,GISWNSGSIGYADSVP,AGRGGGYFDY,4.63 / nd / nd,4.63,4 of 9 (4.45)
RFTYDDYAMH,GISTNSGSIGYADSVK,VGRGGGYFDY,nd / nd / nd,nd,0 of 9
GFTFDDYAMH,RHSWNSGSIGYADSVK,VGRGPGYFDY,nd / nd / nd,nd,0 of 9
GFTFDDYAMH,GISWNSGSSGYADSVK,VGRGGGHFSY,nd / nd / nd,nd,0 of 9
GFTFDDGAMH,GIRWNSDSIGYADSVK,VGRGGGYFDY,3.44 / nd / nd,3.44,1 of 9 (3.05)
GTTFDDYWMH,GISWNSGSIGYADSVK,VGRHGGYFDY,nd / nd / nd,nd,0 of 9
GFTFDDYAMH,GISWNSGSIGYADEVK,VGRGGGYVDY,4.32 / 5.93 / nd,5.12,8 of 9 (4.74)
GFTFDDYAPH,GISWNSGSIGYEDSVT,VGRGGGYFDY,4.28 / nd / nd,4.28,0 of 9
GFTFDDYAMH,GISWNSGSKHPADSVK,VGRGGGYFDY,4.61 / 5.80 / nd,5.21,3 of 9 (4.52)
GFTFDDYAMH,GISENSGSIGYADSVF,VGRGGGMFDY,5.37 / 4.29 / 4.42,4.69,6 of 9 (4.78)
GFTFDDSPMH,GISWNSGIIGYADSVK,VGRGGGYFDY,nd / nd / 3.91,3.91,0 of 9
GFIFDDYAMH,GISDNSGSIGYADSVK,VGRGGGVFDY,3.43 / 4.45 / nd,3.94,1 of 9 (3.29)
GFTFDDYAMH,GIKWNSGSIVYADSVK,RGRGGGYFDY,nd / nd / nd,nd,0 of 9
GFTFDDYAMH,GIMWNSGSIGYADSVK,VGRGGGYFGY,5.21 / nd / nd,5.21,2 of 9 (3.49)
GFTFDDYAMH,GRSWNSGSIGYADSHK,VGRGGGYRDY,nd / 4.57 / 4.82,4.70,2 of 9 (4.29)
GFTFDDYAMH,GISWRSGSIGYADSVK,VGRNGGYFDY,4.65 / nd / nd,4.65,4 of 9 (4.48)
GFTFDDYAMH,GISWNSHSIGYADSET,VGRGGGYFDY,nd / nd / nd,nd,0 of 9
GFTFDDYAMH,GIHWISGSIGYADSVK,VGRGGGYFDE,nd / nd / nd,nd,1 of 9 (1.89)
GFTFDDYAMH,GISWNSGSIGYLDSVK,VGREGGYFDY,2.78 / 2.87 / 2.66,2.77,2 of 9 (5.23)
GFTFDDYAMH,GISQNMGSIGYADSDK,VGRGGGYFDY,nd / nd / nd,nd,0 of 9
GFTFDDYAMH,GISWFSGSIGYADSVK,VEYGGGYFDY,4.73 / 6.16 / 4.75,5.21,7 of 9 (4.93)
GFTFDDYWMH,GISWNCGSIGYKDSVK,VGRGGGYFDY,nd / 5.60 / nd,5.60,3 of 9 (4.88)
GFTFDDYMMH,GIGWNSGSIGYADSVK,VQRGGGYFDY,nd / nd / nd,nd,0 of 9
GFTFDLYPMH,GISWNSGSIGYADSVK,VGRGGCYFDY,4.45 / 6.66 / 4.88,5.33,5 of 9 (5.22)
FFSFDDYAMH,GISWNSGSIGYADSVK,VGRQGGYFDY,nd / nd / nd,nd,0 of 9
EFTFDDYYWH,GISWNSGSIGYADSVK,VGRGGGYFDY,nd / nd / nd,nd,1 of 9 (5.46)
GFTFDDYAMH,GISWNSGQIGYADSVK,VWRGGNYFDY,nd / nd / nd,nd,0 of 9
GFTFDDYAMH,GISWRSGSAGYADSVK,VGRGGRYFDY,nd / nd / nd,nd,1 of 9 (3.76)
GFTFDDYAMH,GIQWNSGSIRYADLVK,VGRGGGYFDY,nd / 4.81 / nd,4.81,5 of 9 (4.64)
GFTFDDYTMH,GISWNSTSIGYADSVK,VGRGGGYFDS,nd / nd / nd,nd,0 of 9

Excerpt, the final 5 entries:

CDR-H1,CDR-H2,CDR-H3,"log10 Kd, replicates","mean, log10 nM",control signals
EFTFDDYYWH,GISWNSGSIGYADSVK,VGRGGGYFDY,nd / nd / nd,nd,1 of 9 (5.46)
GFTFDDYAMH,GISWNSGQIGYADSVK,VWRGGNYFDY,nd / nd / nd,nd,0 of 9
GFTFDDYAMH,GISWRSGSAGYADSVK,VGRGGRYFDY,nd / nd / nd,nd,1 of 9 (3.76)
GFTFDDYAMH,GIQWNSGSIRYADLVK,VGRGGGYFDY,nd / 4.81 / nd,4.81,5 of 9 (4.64)
GFTFDDYTMH,GISWNSTSIGYADSVK,VGRGGGYFDS,nd / nd / nd,nd,0 of 9

Source: Engelhart et al. 2022 (doi:10.1038/s41597-022-01779-4), MIT Lincoln Laboratory and A-Alpha Bio; data file from the FLAb repository.